Literature values as cited in patent US8658664B2 (The Board of Regents of the University of Texas System, priority 2008, dated 2014).

System: UV-induced basal cell carcinoma cells
Conditions: oral, Ptch1+/- mice; cited from earlier work

Q: With `CC1=C2C[C@H]3[C@@H](CC=C4C[C@@H](O)CC[C@@]43C)[C@@H]2CC[C@]12O[C@@H]1C[C@H](C)CN[C@H]1[C@H]2C` [Cyclopamine] as the compound, how does the “block of growth of UV-induced basal cell carcinoma cells” value read?
A: 50%
